Assay results taken from paper PMC3383996.

Test system: P37840
Test: SEC; quantitative SEC under bulk conditions, Superdex 75 10/300, 50 μl of the AF488/AF647-labeled mixture (70 μM) at different incubation times, absorbance at 280, 488 and 647 nm; oligomers elute in the void volume (7 ml), monomer at 9.3 ml

A90C mutant variant of α-synuclein labeled with Alexa Fluor 488 or Alexa Fluor 647
mass fraction of soluble aggregates: very low (≤5%)
